Results published in US20080058281A1, “Skin Lightening Compositions Comprising Vitamines and Flavonoids” (priority 2004, published 2008).

Test system: Melanoderm (MatTek MEL-300-B) tissue, epidermal keratinocytes (NHEK) and melanocytes (NHM)
Test: Melanoderm system: quantification of light (alkali-soluble) and dark (alkali-insoluble) melanin
Type: cell-based, human
Settings: Table 1 concentrations
Description: In these examples, evaluation of the ability of various agents, individually and in combination, to influence levels of dark and light melanin was tested using the commercially available Melanoderm™ system.
The MelanoDerm™ MatTeks system consists of normal, human-derived epidermal keratinocytes (NHEK) and melanocytes (NHM) which have been cultured to form a multilayered, highly differentiated model of the human epidermis. The NHM within co-cultures undergo spontaneous melanogenesis leading to tissues of varying levels of pigmentation. The tissues are produced using serum free medium without artificial stimulators of melanogenesis such as TPA and IBMX. The cultures are grown on cell culture inserts at the air-liquid interface, allowing for simulated topical application of agents to be tested. Introduction of agents into the medium simulates systemic application. Thus, the model provides a useful in vitro means to evaluate agents designed to modulate skin pigmentation.
On delivery, the melanoderms (MatTek MEL-300-B) were placed onto metal ring supports in a 6 well plate containing 5 ml of pre-warmed maintenance media (of EPI-100-MM-PRF), using aseptic technique as per MatTek's protocol. Incubation was carried out overnight at 37° C. and 4% CO2 to allow the melanoderms to recover and equilibrate fully. Once placed under these conditions the MEL-300 tissue, undergo melanogenesis and differentiation.
Treatment was initiated on the following morning. Agents to be tested were dissolved in appropriate solvents and added to warmed media at final concentrations pre-assessed for melanocyte toxicity. Each time the media was changed, the spent media was aspirated from the melanoderms and reserved for testing for toxicity (Lactate Dehydrogenase (Promega)) and Interleukin-1 release (R&D systems) and replaced with a fresh dose of media plus test agents whether within the media of the melanoderm. Melanoderms were returned to the incubator. This treatment regime was repeated every 48 hours until a relative difference in darkening was observed between control and test agents.
On observation of differences in darkening, microscopic and macroscopic darkening were recorded photographically. Harvesting the tissue of the melanoderm involved cutting away the tissue from its plastic support and was followed by quantification of melanin present post-treatment versus untreated.
Melanoderm samples were cut from the plastic holders and the wet weight of tissue measured. 200 μl 1M NaOH/8M urea was added to the melanoderm sample the tissue homogenised in a microfuge tube. […]
Absolute melanin is calculated as the actual melanin quantity calculated from a previously determined light melanin standard curve: x=(y−0.003)/4.76423 (where x=concentration of melanin and y=optical density at 340 nm).

How did the “Ratio of light melanin (μg/g)/dark melanin (μg/g)” value (control 0.14) turn out when Vitamin A was run?
The value was 0.16.

What about the “Light Melanin” value (alkali-soluble melanin, OD 340 nm, control 0.85) of the same substance?
The value was 1.09 µg/g.

And the “Dark Melanin, change relative to control” value (value in brackets under Dark Melanin)?
Its value is “(+10.4%)”.

And the “Light Melanin, change relative to control” value (value in brackets under Light Melanin)?
Its value is “(+28.2%)”.
